Measured values as given in US20190321291A1, “3D Printing and Drug Delivery” (Biogelx Limited, priority 2016, published 2019).

Experiment: Drug release assay from Fmoc-FF/S hydrogel into PBS release buffer, HPLC analysis
Assay type: physicochemical
Settings: for Concentration (ug/mL) Control: control solution in PBS
Procedure: An 1100 Series high-performance liquid chromatography pump (Agilent, USA) was used for the analysis which was performed using acetonitrile with 0.1% TFA and water with 0.1% TFA. […] This concentration was kept constant until 16 mins; after that the gradient was decreased, reaching 40% (v/v) acetonitrile in water at 19 mins. The data was then processed manually using the software ‘Agilent Chemstation.’
The triplicate samples of release buffer were analysed by HPLC, and for the peaks corresponding to each model drug compound the peak area was measured. The average peak area was recorded, and using a standard curve prepared for each compound the concentration of each was determined.
At each of the specified time points the release buffer remaining in the wells was transferred to HPLC vials and stored at 4° C. until HPLC analysis was performed.
An 1100 Series high-performance liquid chromatography pump (Agilent, USA) was used for the analysis which was performed using acetonitrile with 0.1% TFA and water with 0.1% TFA. […] This concentration was kept constant until 16 mins when the gradient was decreased to 40% (v/v) acetonitrile in water at 19 mins. The data was then processed manually using the software ‘Agilent Chemstation.’
The triplicate samples of release buffer were analysed by HPLC, and for the peaks corresponding to each model drug compound the peak area was measured. The average peak area was recorded, and using standard curve prepared for each compound the concentration of each was determined.

Compound: C=C[C@H]1C[N@]2CC[C@H]1C[C@@H]2[C@@H](O)c1ccnc2ccc(OC)cc12 [Quinidine]
- Concentration (ug/mL) Gel (30 min, drug in Fmoc-FF/S gel, release buffer PBS 37° C.): 1.82 µg/mL
- Concentration (ug/mL) Gel (3 h, Fmoc-FF/S gel): 3.10 µg/mL
- Concentration (ug/mL) Control (3 h): 32.25 µg/mL
- Concentration (ug/mL) Control (6 h): 0.47 µg/mL
- Concentration (ug/mL) Control (9 h): 0.04 µg/mL
- Concentration (ug/mL) Gel (24 h, Fmoc-FF/S gel): 5.11 µg/mL
- Concentration (ug/mL) Control (24 h): 0 µg/mL
- Concentration (ug/mL) Gel (48 h, Fmoc-FF/S gel): 6.22 µg/mL
- Concentration (ug/mL) Control (48 h): 0 µg/mL
- Concentration (ug/mL) Gel (72 h, Fmoc-FF/S gel): 4.15 µg/mL
- Concentration (ug/mL) Control (72 h): 0 µg/mL
- Concentration (ug/mL) Gel (5 d, Fmoc-FF/S gel): 2.17 µg/mL
- Concentration (ug/mL) Control (5 d): 0 µg/mL
- Concentration (ug/mL) Gel (7 d, Fmoc-FF/S gel): 2.98 µg/mL
- Concentration (ug/mL) Control (7 d): 0 µg/mL
